# Assay results as given in patent publication US4822408A, “Alkyl-, alkenyl- and alkynylnitroguanidines as cytokinin plant growth regulants” (American Cyanamid Company, priority 1987, dated 1989).
# Tested on: cucumber cotyledon
# Experiment: Cucumber cotyledon greening bioassay for relative cytokinin activity
# Assay type: cell-based, Cucumis sativa var. National Pickling
# Settings: Dose giving 50% of the maximum possible enhancement, as judged by a standard; 0.06-64 ppm typically tested; inactive if more than 200 ppm
compound,measurement,value
CNC(=N)N[N+](=O)[O-],ED50,113 ppm

# Only a part of the results on these compounds is given; other tests are left out.
